Assay results from patent publication US8981106B2, “Pyrimidinecarboxamides as CXCR2 modulators” (Syntrix Biosystems, Inc., priority 2009, dated 2015).

Amino acid sequences for entries named in this document (tags omitted).
UniProt P25025, whole entry: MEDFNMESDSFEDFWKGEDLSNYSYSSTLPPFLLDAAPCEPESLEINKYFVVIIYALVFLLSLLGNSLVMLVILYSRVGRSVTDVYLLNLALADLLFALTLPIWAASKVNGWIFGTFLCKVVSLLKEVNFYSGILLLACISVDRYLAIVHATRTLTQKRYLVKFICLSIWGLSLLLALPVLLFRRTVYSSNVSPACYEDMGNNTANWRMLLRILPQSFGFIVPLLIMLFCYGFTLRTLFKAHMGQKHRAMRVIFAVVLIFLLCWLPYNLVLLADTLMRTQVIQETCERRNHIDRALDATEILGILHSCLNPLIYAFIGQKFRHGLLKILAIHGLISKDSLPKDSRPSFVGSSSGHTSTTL

Experiments:
[1] = target: T1, CXCR2 (Homo sapiens (Human), UniProt P25025); test: Agonist activity: intracellular calcium release in human neutrophils in the absence of GROα; assay type: cell-based
Procedure: (§1) In Tables 1-5, the IC50 or EC50 values were determined using the following assay. This assay measures intracellular calcium release via fluorescence as an indication of CXCR2 receptor activation by the physiologic agonist GROα. The assay is a Ca^2+ mobilization assay that measures changes in intracellular Ca^2+ with a FlexStation II scanning fluorometer using a FLIPR-3 Calcium Assay Kit (Molecular Devices, Sunnyvale, Calif.). The procedure is as follows:
9. The maximum change in fluorescence, expressed in arbitrary units over baseline (Max-Min) was used to determine the GROα response. […] Therapeutic Activity
(§2) The maximum change in fluorescence, expressed in arbitrary units over baseline (Max-Min), was used to determine the GROα response.
Intracellular calcium release is a hallmark of CXCR2 activation by endogenous agonists, such as GROα and IL-8.

[2] = target: T1, CXCR2; test: Inhibition of GROα-mediated intracellular calcium release in human neutrophils (FLIPR-3 Ca2+ mobilization); assay type: cell-based; conditions: 25 nM GROα
Procedure: as §1
1. Human neutrophils were suspended in HBSS^− (without Ca^2+ and Mg^2+) containing 10 mM HEPES and FLIPR Calcium 3 dye (3.1×10^7 cells in total volume 1.7 mL).
2. […] As controls, 2 μL of DMSO (1% final concentration) were added to other 2 tubes.
3. Cells were incubated for 30 min at 37° C.
4. […]
6. The cell suspension was aliquoted into a 96-well Reading Plate (Corning) in a volume of 90 μL (10^5 cells/well). […]
9. The maximum change in fluorescence, expressed in arbitrary units over baseline (Max-Min) was used to determine the GROα response. […]
Briefly, human neutrophils were suspended in HBSS^− (without Ca^2+ and Mg^2+) containing 10 mM HEPES and FLIPR Calcium 3 dye (3.1×10^7 cells in total volume 1.7 mL). […] The cell suspension was aliquoted into a 96-well Reading Plate (Corning) in a volume of 90 μL (10^5 cells/well). […]
as §2

## O=C(Nc1ccc(F)cc1)c1ccc(SCc2cc(OC(F)(F)F)ccc2B(O)O)nc1 [Compound 2, 6-(2-boronic acid-5-trifluoromethoxy-benzylsulfanyl)-N-(4-fluoro-phenyl)-nicotinamide]
[1]
  EC50: 1.25 µM
[2]
  IC50: 0.022 µM
